Test results taken from ChEMBL document CHEMBL5500396, “Discovery, Multiparametric Optimization, and Solid-State Driven Identification of CHF-6550, a Novel Soft Dual Pharmacology Muscarinic Antagonist and β2 Agonist (MABA) for the Inhaled Treatment of Respiratory Diseases” (J Med Chem, 2024).
Activity calls are given as the source filed them.

How the values were obtained:
Conditions in all cases: albino Dunkin-Hartley, dose 0.3 nmol/kg, route it(Intratracheal), time 16.0 hrs
Cavia porcellus [1] = organism: Cavia porcellus
Cavia porcellus [2] = organism: Cavia porcellus; remark: listed apart in the source
Cavia porcellus [3] = organism: Cavia porcellus; remark: listed apart in the source

Measured: inhibition

CCN1CCC(COC(=O)[C@](O)(c2ccccc2)c2cccc(OCCCNC(=O)c3cc(OC)c(CNC[C@H](O)c4ccc(O)c5[nH]c(=O)ccc45)cc3F)c2)CC1.O=C(O)C(F)(F)F.O=C(O)C(F)(F)F
active: all assays above
